The text below walks through data of patent US10442819B2, “Tricyclic compounds as inhibitors of mutant IDH enzymes” (Merck Sharp & Dohme Corp., priority 2014, dated 2019).

The chains behind the UniProt entries cited, without tags or fusion partners.
UniProt O75874, whole entry R132H: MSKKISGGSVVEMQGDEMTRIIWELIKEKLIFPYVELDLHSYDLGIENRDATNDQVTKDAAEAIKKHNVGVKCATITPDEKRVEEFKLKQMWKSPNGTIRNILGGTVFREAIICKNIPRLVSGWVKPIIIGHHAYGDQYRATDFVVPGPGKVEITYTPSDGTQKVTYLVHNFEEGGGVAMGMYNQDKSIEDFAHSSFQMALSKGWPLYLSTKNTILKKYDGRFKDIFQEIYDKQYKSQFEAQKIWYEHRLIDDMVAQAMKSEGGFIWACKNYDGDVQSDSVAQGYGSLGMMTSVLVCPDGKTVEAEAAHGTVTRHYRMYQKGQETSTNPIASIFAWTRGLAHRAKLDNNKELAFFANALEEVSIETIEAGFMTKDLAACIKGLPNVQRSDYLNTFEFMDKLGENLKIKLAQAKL

Molecules are shown by their SMILES.

Usually IC50 stands for the concentration that inhibits the measured activity by half.

In this assay the target is R132H mutant IDH1 enzyme (Homo sapiens (Human), UniProt O75874, R132H). In words: R132H IDH1 Enzymatic Assay. The note with it: R132H mutant IDH1 enzyme 1.5 nM final; luminescence readout; read-out: IC50. The format is biochemical.

`O=C([C@H]1CC[C@H](N2C[C@H](F)[C@@H](F)C2)CC1)N1Cc2cccnc2Nc2ccc(N3CCOCC3)cc21` [Example 479, 6-({trans-4-[(3S,4S)-3,4-difluoropyrrolidin-1-yl]cyclohexyl}carbonyl)-8-morpholin-4-yl-6,11-dihydro-5H-pyrido[2,3-b][1,5]benzodiazepine]: the IC50 was found to be 843 nM.
As for `O=C([C@H]1CC[C@@H](N2CC(F)(F)C(F)(F)C2)CC1)N1Cc2cccnc2Nc2ccc(N3CCOCC3)cc21` [Example 470, 8-morpholin-4-yl-6-{[cis-4-(3,3,4,4-tetrafluoropyrrolidin-1-yl)cyclohexyl]carbonyl}-6,11-dihydro-5H-pyrido[2,3-b][1,5]benzodiazepine], the figure is 64 nM.
As for `CC(C)O[C@H]1CC[C@H](C(=O)N2Cc3cccnc3Nc3ccc(C4=CCCOC4)cc32)OC1` [Example 23, (8-(5,6-dihydro-2H-pyran-3-yl)-5,11-dihydro-6H-benzo[b]pyrido[2,3-e][1,4]diazepin-6-yl)((2R,5S)-5-isopropoxytetrahydro-2H-pyran-2-yl)methanone], the figure is 6 nM; as for `CC(C)O[C@H]1CC[C@H](C(=O)N2Cc3cccnc3Nc3ccc(C4(O)COC4)cc32)CC1` [Example 512, [8-(3-hydroxyoxetan-3-yl)-5,11-dihydro-6H-pyrido[2,3-b][1,5]benzodiazepin-6-yl][trans-4-(propan-2-yloxy)cyclohexyl]methanone], 47 nM.
As for `O=C([C@H]1CC[C@@H](N(CC(F)(F)F)C2CC2)CC1)N1Cc2cccnc2Nc2ccc(N3CCOCC3)cc21` [Example 468, cis-N-cyclopropyl-4-[(8-morpholin-4-yl-5,11-dihydro-6H-pyrido[2,3-b][1,5]benzodiazepin-6-yl)carbonyl]-N-(2,2,2-trifluoroethyl)cyclohexanamine], the figure is 44 nM; as for `CO[C@@]1(C)CCC[C@@H](C(=O)N2Cc3cccnc3Nc3ccc(N4CCOCC4)cc32)CC1` [Example 134, 6-{[(1R,4S)-4-methoxy-4-methylcycloheptyl]car-bonyl}-8-morpholin-4-yl-6,11-dihydro-5H-pyrido[2,3-b][1,5]benzodiazepine], 546 nM.
Consider `CO[C@@H]1[C@H](C)C[C@H](C(=O)N2Cc3cccnc3Nc3ccc(N4CCOCC4)cc32)C[C@@H]1C` [Example 129, 6-{[(1r,3R,4s,5S)-4-methoxy-3,5-dimethylcyclohexyl]car-bonyl}-8-morpholin-4-yl-6,11-dihydro-5H-pyrido[2,3-b][1,5]benzodiazepine], for which the IC50 was 82 nM.
For the compound `CO[C@H]1CC[C@H](C(=O)N2Cc3cccnc3Nc3ccc(-c4ccnc5[nH]ccc45)cc32)CC1` [Example 410, 6-[(trans-4-methoxycyclohexyl)carbonyl]-8-(1H-pyrrolo[2,3-b]pyridin-4-yl)-6,11-dihydro-5H-pyrido[2,3-b][1,5]benzodiazepine], the IC50 worked out at 31 nM.
As for `CCC(C)O[C@H]1CC[C@H](C(=O)N2Cc3cccnc3Nc3ccc(N4CCOCC4)cc32)CC1` (stereo partly drawn) [Example 156, 6-[(trans-4-{[1-methylpropyl]oxy}cyclo-hexyl)carbonyl]-8-morpholin-4-yl-6,11-dihydro-5H-pyrido[2,3-b][1,5]benzodiazepine], the figure is 38 nM; as for `C[C@H](N(C)C1CCC(C(=O)N2Cc3cccnc3Nc3ccc(N4CCOCC4)cc32)CC1)C(F)(F)F` (stereo partly drawn) [Example 503, Trans-N-methyl-4-[(8-morpholin-4-yl-5,11-dihydro-6H-pyrido[2,3-b][1,5]benzodiazepin-6-yl)carbonyl]-N-[(1)-2,2,2-trifluoro-1-methylethyl]cyclohexanamine], 73 nM; as for `CO[C@@H]1CC[C@H](C(=O)N2Cc3cccnc3Nc3ccc(N4CCOCC4)cc32)C[C@@H]1C` (single isomer, unassigned) [Example 98], 469 nM.
As for `CC(C)[C@@H](N[C@H]1CC[C@H](C(=O)N2Cc3cccnc3Nc3ccc(N4CCOCC4)cc32)CC1)C(F)(F)F` [Example 456, trans-N-[(1R)-2-methyl-1-(trifluoromethyl)propyl]-4-[(8-morpholin-4-yl-5,11-dihydro-6H-pyrido[2,3-b][1,5]benzodiazepin-6-yl)carbonyl]cyclohexanamine], the IC50 was 108 nM.
As for `CC(C)[C@H]1OCC(=O)N1c1ccc2c(c1)N(C(=O)C1CCC(C(F)(F)F)CC1)Cc1cccnc1N2` (stereo partly drawn) [Example 493], the figure is 4 nM.
As to `C[C@H](N[C@H]1CC[C@H](C(=O)N2Cc3cccnc3Nc3ccc(N4CCOCC4)cc32)CC1)C(F)(F)F` [Example 439, trans-4-[(8-morpholin-4-yl-5,11-dihydro-6H-pyrido[2,3-b][1,5]benzodiazepin-6-yl)carbonyl]-N-[(1S)-2,2,2-trifluoro-1-methylethyl]cyclohexanamine], the IC50 is 237 nM.
Turning to `COC1CC2(C1)CN(c1ccc3c(c1)N(C(=O)[C@H]1CC[C@H](OC(C)(C)C)CC1)Cc1cccnc1N3)C2` [Example 548, (Trans-4-tert-butoxycyclohexyl)[8-(6-methoxy-2-azaspiro[3.3]hept-2-yl)-5,11-dihydro-6H-pyrido[2,3-b][1,5]benzodiazepin-6-yl]methanone], the IC50 was found to be 21 nM.
As for `CO[C@H]1CC[C@H](C(=O)N2Cc3cccnc3Nc3ccc(-c4ccnn4C)cc32)CC1` [Example 182, 6-[(trans-4-methoxycyclohexyl)carbonyl]-8-(1-methyl-1H-pyrazol-5-yl)-6,11-dihydro-5H-pyrido[2,3-b][1,5]benzodiazepine], the IC50 stood at 164 nM.
As for `CO[C@H]1CC[C@](F)(C(=O)N2Cc3cccnc3Nc3ccc(N4CCOCC4)cc32)CC1` [Example 120, 6-[(cis-1-fluoro-4-methoxycyclohexyl)car-bonyl]-8-morpholin-4-yl-6,11-dihydro-5H-pyrido[2,3-b][1,5]benzodiazepine], the figure is 298 nM.
As for `CO[C@H]1CC[C@H](C(=O)N2Cc3cccnc3Nc3ccc(N4CCOC4=O)cc32)CC1` [Example 489, 3-{6-[(Trans-4-methoxycyclohexyl)carbonyl]-6,11-dihydro-5H-pyrido[2,3-b][1,5]benzodiazepin-8-yl}-1,3-oxazolidin-2-one], the figure is 876 nM.
As for `CO[C@H]1CC[C@H](C(=O)N2Cc3cccnc3Nc3ccc(-c4cnn(C5CC5)c4)cc32)CC1` [Example 370, 8-(1-cyclopropyl-1H-pyrazol-4-yl)-6-[(trans-4-methoxycyclohexyl)carbonyl]-6,11-dihydro-5H-pyrido[2,3-b][1,5]benzodiazepine], the figure is 149 nM; as for `O=C(C1CCN(CC(F)F)CC1)N1Cc2cccnc2Nc2ccc(N3CCOCC3)cc21` [Example 552, [1-(2,2-Difluoroethyl)piperidin-4-yl][8-(morpholin-4-yl)-5,11-dihydro-6H-pyrido[2,3-b][1,5]benzodiazepin-6-yl]methanone], 930 nM; as for `C[C@@]12C[C@@H](CO1)N(c1ccc3c(c1)N(C(=O)C1CCN(CC(F)(F)F)CC1)Cc1cccnc1N3)C2` [Example 348, 8-[(1S,4S)-1-methyl-2-oxa-5-azabicyclo[2.2.1]hept-5-yl]-6-{[1-(2,2,2-trifluoroethyl)piperidin-4-yl]carbonyl}-6,11-dihydro-5H-pyrido[2,3-b][1,5]benzodiazepine], 12 nM.
On to `CO[C@H]1CC[C@@H](C(=O)N2Cc3cccnc3Nc3ccc(N4CCN(CC(F)(F)F)CC4)cc32)CC1` [Example 239, 6-[(cis-4-methoxycyclohexyl)carbonyl]-8-[4-(2,2,2-trifluoroethyl)piperazin-1-yl]-6,11-dihydro-5H-pyrido[2,3-b][1,5]benzodiazepine], for which the IC50 worked out at 910 nM.
`C=CC(=O)N1C[C@H]2CC[C@@H]1CN2c1ccc2c(c1)N(C(=O)C1CC(C)(C)C1)Cc1cccnc1N2` [Example 499, 8-[(1R,4R)-5-acryloyl-2,5-diazabicyclo[2.2.2]oct-2-yl]-6-[(3,3-dimethylcyclobutyl)carbonyl]-6,11-dihydro-5H-pyrido[2,3-b][1,5]benzodiazepine]: the IC50 amounted to 125 nM.
As for `O=C(N1CCN(CC(F)(F)F)CC1)N1Cc2cccnc2Nc2ccc(N3CCOCC3)cc21` [Example 553, (8-Morpholino-5,11-dihydro-6H-benzo[b]pyrido[2,3-e][1,4]diazepin-6-yl)(4-(2,2,2-trifluoroethyl)piperazin-1-yl)methanone], the figure is 280 nM; as for `CCOc1cncc(-c2ccc3c(c2)N(C(=O)[C@H]2CC[C@H](OC)CC2)Cc2cccnc2N3)c1` [Example 180, 8-(5-ethoxypyridin-3-yl)-6-[(trans-4-methoxycyclohexyl)carbonyl]-6,11-dihydro-5H-pyrido[2,3-b][1,5]benzodiazepine], 212 nM.
Consider `CC(C)OC1CCN(C(=O)N2Cc3cccnc3Nc3ccc(N4CCOCC4)cc32)CC1` [Example 554, 6-{[4-(1-methylethoxy)piperidin-1-yl]carbonyl}-8-morpholin-4-yl-6,11-dihydro-5H-pyrido[2,3-b][1,5]benzodiazepine], for which the IC50 is 294 nM.
As for `CC(C)O[C@H]1CCC(C(=O)N2Cc3cccnc3Nc3ccc(C4CCCOC4)cc32)OC1` (single isomer, unassigned) [Example 27], the figure is 10 nM; as for `COCCN(C)c1ccc2c(c1)N(C(=O)[C@H]1CC[C@@H](OC)CC1)Cc1cccnc1N2` [Example 237, 6-[(cis-4-methoxycyclohexyl)carbonyl]-N-(2-methoxyethyl)-N-methyl-6,11-dihydro-5H-pyrido[2,3-b][1,5]benzodiazepin-8-amine], 130 nM.
Consider `COCC1CCN(c2ccc3c(c2)N(C(=O)[C@H]2CC[C@H](OC)CC2)Cc2cccnc2N3)CC1` [Example 263, 6-[(trans-4-methoxycyclohexyl)carbonyl]-8-[4-(methoxymethyl)piperidin-1-yl]-6,11-dihydro-5H-pyrido[2,3-b][1,5]benzodiazepine], for which the IC50 amounted to 105 nM.
Take `CCCO[C@H]1CC[C@H](C(=O)N2Cc3cccnc3Nc3ccc(N4[C@@H]5CC[C@H]4C[C@@H](OC)C5)cc32)CC1` [Example 314, 8-[(3-endo)-3-methoxy-8-azabicyclo[3.2.1]oct-8-yl]-6-[(trans-4-propoxycyclohexyl)carbonyl]-6,11-dihydro-5H-pyrido[2,3-b][1,5]benzodiazepine]: the IC50 was 95 nM.
